# From PubChem BioAssay AID504634 (The Scripps Research Institute Molecular Screening Center, 2011)
# The chains behind the UniProt entries cited, without tags or fusion partners.
# UniProt P47898, whole entry, looked up: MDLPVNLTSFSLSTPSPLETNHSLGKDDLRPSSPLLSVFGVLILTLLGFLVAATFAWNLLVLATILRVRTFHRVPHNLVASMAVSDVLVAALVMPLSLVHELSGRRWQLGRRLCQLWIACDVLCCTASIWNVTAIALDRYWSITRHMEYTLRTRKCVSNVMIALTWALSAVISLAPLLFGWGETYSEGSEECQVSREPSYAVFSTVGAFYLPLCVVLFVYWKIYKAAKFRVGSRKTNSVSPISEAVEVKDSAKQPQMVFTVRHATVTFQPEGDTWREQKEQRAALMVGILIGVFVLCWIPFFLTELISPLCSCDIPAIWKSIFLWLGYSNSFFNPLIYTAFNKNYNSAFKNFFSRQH
# Only a part is listed here, and it is no random draw. Active and inactive are the calls of the source. Rule as the data show it: active = inhibition mostly above about 23% (no sharp cut-off); inactive = mostly below about 18%.
# Target: 5-hydroxytryptamine receptor 5A (Homo sapiens) (UniProt P47898)
# Assay: inverse agonism at human 5-HT5A receptor – cell-based, luminescence, full-deck HTS, counter-screen for OPRM1-OPRD1 heterodimer inverse agonist project, primary screen (AID 504634);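 also: 0% = cells with DMSO and 100% = no-cell wells with DMSO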
# Conditions: HTR5A cell line, at 9.3 µM, stronger effect = higher value
row,Compound,inhibition
1,CC(O)CNc1nc2ccccc2n1CC(=O)NC12CC3CC(CC(C3)C1)C2 (configuration not stated),inactive: -5.21%
2,CC1CN(CCn2cnc3c(N)ncnc32)CC(C)O1 (configuration not stated),inactive: -1.15%
3,O=C(CCCCCNC(=O)N1CCn2c1nc1ccccc12)NCc1ccc(F)cc1,inactive: -17.1%
4,Cc1ccc2c(c1)C1CN(C)CCC1N2C(=O)c1cccc(S(=O)(=O)N(C)C)c1 (configuration not stated),inactive: -18.4%
5,O=C1CC(N2CCC(n3c(=O)[nH]c4ccccc43)CC2)C(=O)N1Cc1ccccc1 (configuration not stated),inactive: -15.6%
6,CC(C)N(C(=O)Cn1c(SCC(=O)Nc2nccs2)nc2ccccc21)C(C)C,inactive: -25.8%
7,CSc1nc(N)nc2c1ncn2CC(=O)NCC(c1ccccc1)c1ccccc1,inactive: -6.98%
8,Cc1ccc2c(c1)C1CN(C)CCC1N2S(=O)(=O)c1ccccc1 (configuration not stated),inactive: 0.5%
9,CC(C)[C@H](NC(=O)N1CCn2c1nc1ccccc12)C(=O)NCCc1ccccc1,inactive: -15.7%
10,CN1CCC(N(C)c2ccc(C(N)=O)cc2[N+](=O)[O-])CC1,inactive: -11.6%
11,Cn1c(=O)c2c(ncn2CC(=O)Nc2ccccc2N2CCOCC2)n(C)c1=O,inactive: -2.17%
12,CCc1cccc(CC)c1N(COC)C(=O)Cn1c(C(C)O)nc2ccccc21 (configuration not stated),inactive: 1.79%
13,FC(F)(F)c1nc2ccccc2n1CCNc1nc(CN2CCCCC2)cs1,inactive: -6.79%
14,Cc1ccc(OP(=O)(Nc2ccccn2)Oc2ccc(C)cc2)cc1,inactive: -10.1%
15,CC(=O)NC(SC(=S)N(CC(C)C)CC(C)C)C(Cl)(Cl)Cl (configuration not stated),inactive: -0.67%
16,CC(C(=O)Nc1ccc2c(c1)OCO2)n1cnc2c1c(=O)n(C)c(=O)n2C (configuration not stated),inactive: 11%
17,Cn1c(=O)c2c(ncn2CC(=O)NC2CCCCC2)n(C)c1=O,inactive: 18.1%
18,COC(=O)c1cc2c(s1)N=C(c1ccccc1)N(C)P2(=O)N1CCOCC1 (configuration not stated),inactive: -8.89%
19,CC(C)NC(=O)Cn1cnc2c1c(=O)n(C)c(=O)n2C,inactive: -0.81%
20,Cc1sc2ncnc(NC3CCN(Cc4ccccc4)CC3)c2c1C,inactive: -29.3%
21,CC(/C=N/NC(=O)Cn1cnc2c1c(=O)n(C)c(=O)n2C)=C\c1ccco1,inactive: 13%
22,CCOCN(C(=O)Cn1c(CO)nc2ccccc21)c1c(C)cccc1CC,inactive: -3.8%
23,Cc1nc2ccccc2n1CC(=O)NC1CCCC1,inactive: -29.8%

row,Compound,inhibition
1,O=C(Cn1c2[n+](c3ccc(C(F)(F)F)cc31)CCCCC2)Nc1ccccc1,inactive: -4.19%
2,Cc1ccc(Cn2nnnc2CN2CCC(n3nnc4ccccc43)CC2)cc1,inactive: -2.52%
3,O=c1oc2ccccc2c2c1ncn2CCN1CCOCC1,inactive: -8.39%
4,COc1ccc(OC)c(C(=O)CSc2nc3ccccc3n2CC(=O)NC(C)(C)C)c1,inactive: -35%
5,CCN(CC)CCn1c(NS(=O)(=O)c2ccc(Cl)cc2)nc2ccccc21,inactive: -6.55%
6,C[C@H]1OP(=O)(Oc2ccccc2)[C@H](O)[C@H](O)[C@H]1N=[N+]=[N-] (some centres not stated),inactive: -2.69%
7,Cc1cc2ncn(C3CC(=O)N(Cc4ccc(N5CCCC5=O)cc4)C3=O)c2cc1C (configuration not stated),inactive: -4.51%
8,COc1ccccc1OCCSc1nc2ccccc2n1CC(N)=O,inactive: -10.9%
9,Cn1c(=O)c2c(ncn2CC(=O)N2CCOCC2)n(C)c1=O,inactive: -21.7%
10,Cn1c(=O)c2c(ncn2CC(=O)Nc2nc(-c3ccc(F)c(F)c3)cs2)n(C)c1=O,inactive: 6.56%
11,O=P(Nc1nc2ccccc2s1)(c1ccccc1)c1ccccc1,inactive: -2.44%
12,N=c1n(CCN2CCCC2)c2ccccc2n1CC(O)c1ccco1 (configuration not stated),inactive: -41.5%
13,Cn1c(=O)n(CC(=O)Nc2cccnc2)c2ccccc21,inactive: -31.8%
14,CC(C)N(C(=O)Cn1c(SCC(=O)NC2CC2)nc2ccccc21)C(C)C,inactive: -3.24%
15,CCN(CC)CCn1c(NCc2ccccn2)nc2ccccc21,inactive: 8.83%
16,CCN(CC)CCn1c(N)nc2ccccc21,inactive: 1.7%
17,Cc1ccc(C(C(=O)NC2CCCCC2)N(Cc2ccco2)C(=O)Cn2cnc3ccccc32)cc1 (configuration not stated),inactive: -33.6%
18,CC(O)CNc1nc2ccccc2n1CC(=O)NCC(F)(F)F (configuration not stated),inactive: -0.41%
19,O=C(CSc1nc2ccccc2n1CC(=O)N1CCCC1)N1CCN(C(=O)c2ccco2)CC1,inactive: 15%
20,C[C@H](NC(=O)N1CCn2c1nc1ccccc12)C(=O)NCCc1ccccc1,inactive: -5.22%
21,CCC(=O)Nc1ccc(NC(=O)/C=C/c2ccc(Cl)cc2)cc1,inactive: 13.5%
22,NC(=O)Cn1c2[n+](c3ccccc31)CC(O)CS2 (configuration not stated),inactive: 3.73%
23,CCN(CC)CCn1c(=N)n(CC(=O)c2ccc(C)cc2)c2ccccc21,inactive: -38.5%

row,Compound,inhibition
1,O=P(Nc1ccccn1)(c1ccc(Br)cc1)c1ccc(Br)cc1,inactive: -12.8%
2,O=C(Cn1cnc2ccccc21)Nc1ccc2c(c1)OCCCO2,inactive: -20.9%
3,COC(=O)[C@H](CC(C)C)NC(=O)Cn1cnc2c(NCc3ccccc3)ncnc21,inactive: -0.5%
4,Cc1nnc(NC(=O)Cn2cnc3c2c(=O)n(C)c(=O)n3C)s1,inactive: 36.2%
5,COc1ccc(N)c([N+](=O)[O-])c1[N+](=O)[O-],inactive: -5.66%
6,CC(C)(C)NC(=O)Cn1c(Cl)nc2ccccc21,inactive: 4.69%
7,Cc1ccc(/C=N/NC(=O)Cn2cnc3c2c(=O)n(C)c(=O)n3C)s1,inactive: 13.7%
8,c1ccc2c(c1)nc(NCc1ccc3c(c1)OCO3)n2CCN1CCOCC1,inactive: -8.89%
9,CSc1ccccc1NC(=O)Cn1c(-c2cscn2)nc2ccccc21,inactive: -3.03%
10,O=C(Cn1cnc2ccccc21)N/N=C/c1ccccn1,inactive: 7.45%
11,CC(O)c1nc2ccccc2n1CC(=O)Nc1ccc2c(c1)OCCO2 (configuration not stated),inactive: 14.1%
12,CSCC[C@H](NC(=O)N1CCn2c1nc1ccccc12)C(=O)NCC1CCCO1 (some centres not stated),inactive: -1.3%
13,O=C(Nc1cccc(F)c1)N1CCC(n2c(=O)[nH]c3ccccc32)CC1,inactive: -8.4%
14,O=C(Cn1cnc2c(OCc3ccccc3)ncnc21)NCc1nc2ccccc2[nH]1,inactive: 3.54%
15,O=C(OC1CN2CCC1CC2)c1cccc(Cl)c1 (configuration not stated),inactive: -11%
16,CCn1c(N)[n+](CC(=O)Nc2ccc(SC(F)F)cc2)c2ccccc21,inactive: 5.31%
17,COc1ccc(N2C(=O)CC(N3CCC(n4c(=O)[nH]c5ccccc54)CC3)C2=O)cc1 (configuration not stated),inactive: -2.59%
18,CC(C)C[C@H](NC(=O)N1CCn2c1nc1ccccc12)C(=O)N[C@@H](Cc1ccccc1)C(=O)O,inactive: -17%
19,O=C(Cn1c(CC(=O)N2CCCC2)nc2ccccc21)NCc1ccccc1,inactive: 8.81%
20,COCCOC(=O)C1=C(C)N=C2SCCC(=O)N2C1/C=C/c1ccccc1 (configuration not stated),inactive: 9.78%
21,Cc1ccc2c(c1)C1CN(C)CCC1N2C(=O)/C=C/c1ccc2c(c1)OCO2 (configuration not stated),inactive: -9.44%
22,COc1cc(C(=O)OCCn2c(=O)c3c(ncn3CCN(C)C)n(C)c2=O)cc(OC)c1OC,inactive: -8.66%
23,CSCC[C@H](NC(=O)N1CCn2c1nc1ccccc12)C(=O)NCc1ccc(F)cc1,inactive: 20.4%

row,Compound,inhibition
1,Nc1ccc([As](=O)(O)c2ccc([N+](=O)[O-])cc2)cc1,inactive: 19%
2,N=c1n(CCO)c2ccccc2n1CCN1CCCCC1,inactive: 7.27%
3,COc1ccc(C(=O)N2CCn3c2nc2ccccc23)cc1,inactive: -25.2%
4,C(Cc1nn[nH]n1)Cc1nn[nH]n1,inactive: 18%
5,O=C(Nc1ccccc1Cl)N1CCn2c(nc3ccccc32)C1,inactive: -7.03%
6,COc1ccc(CCNC(=O)Cn2cnc3c2c(=O)n(C)c(=O)n3C)cc1OC,inactive: 14.1%
7,Cn1c(=O)[nH]c(=O)c2c1nc(CN(Cc1ccccc1)Cc1ccccc1)n2CCN1CCOCC1,inactive: -8.09%
8,CN(C)C(=O)Cn1c(SCC(=O)NC2CCCCC2)nc2ccccc21,inactive: -2.94%
9,CC(=O)Nc1ccc2c(c1)nc1n2CCN(C(C)c2ccccc2)C1 (configuration not stated),inactive: -8.28%
10,Cc1nc2ccc(S(=O)(=O)NC(C(=O)N3CCn4c3nc3ccccc34)C(C)C)cc2s1 (configuration not stated),inactive: -1.38%
11,CCN(CC)CCn1c(NC(=O)c2ccccc2O)nc2ccccc21,inactive: 30.9%
12,CC1CCCC(NC(=O)Cn2c(Cl)nc3c2c(=O)n(C)c(=O)n3C)C1C (configuration not stated),inactive: -17.1%
13,O=[As](O)(c1ccccc1)c1ccc(O)cc1,inactive: -9.55%
14,O=C(Cn1cnc2c(NCc3ccccc3)ncnc21)NCc1ccccc1,inactive: 7.03%
15,CCOc1ccc(NC(=O)N2CCC(n3c(=O)[nH]c4ccccc43)CC2)cc1,inactive: -24.7%
16,CS(=O)(=O)Cc1nc2ccccc2n1CC(=O)Nc1cccc(S(=O)(=O)N2CCCC2)c1,inactive: -7.19%
17,O=C(Cn1c(=O)n(CC2CS2)c2ccccc21)N1CCCCC1 (configuration not stated),inactive: -0.39%
18,Cc1nc2cc(C(F)(F)F)ccc2n1C1CCN(Cc2nnnn2Cc2cccs2)CC1,inactive: 5.48%
19,COCC(C)NC(=O)Cn1c(SCc2ccccc2)nc2ccccc21 (configuration not stated),inactive: -13.2%
20,N=c1n(CCN2CCOCC2)c2ccccc2n1CC(=O)c1ccc(Cl)c(Cl)c1,inactive: 3.65%
21,CCn1nccc1C(=O)Nc1nc2ccccc2n1CCN1CCCCC1,inactive: -38.5%
22,O=C(Cn1cnc2c(OCc3ccccc3)ncnc21)NCc1ccc2[nH]ccc2c1,inactive: -23.3%
23,O=[N+]([O-])c1ncn(CCn2cnc([N+](=O)[O-])n2)n1,inactive: -23.5%
